Patent US20240019418A1, “RECEPTORS FOR CYCLIC DINUCLEOTIDES AND METHODS FOR SCREENING AGONISTS OR INHIBITORS THEREOF” (GUANGZHOU WINKEY TECHNOLOGY CO., LTD., priority 2017, published 2024)

The chains behind the UniProt entries cited, without tags or fusion partners. Residues count along the entry.
UniProt Q86WV6, 120-379: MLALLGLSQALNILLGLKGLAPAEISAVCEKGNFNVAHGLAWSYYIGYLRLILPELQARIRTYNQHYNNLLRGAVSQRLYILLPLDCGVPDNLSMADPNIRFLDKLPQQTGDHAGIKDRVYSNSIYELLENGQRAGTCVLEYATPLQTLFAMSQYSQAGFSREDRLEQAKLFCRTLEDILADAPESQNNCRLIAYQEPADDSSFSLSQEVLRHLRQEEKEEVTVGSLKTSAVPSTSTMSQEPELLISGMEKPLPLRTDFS

Legend:
[1] = molecular target: T1, subtype 1 of human STING (Homo sapiens, UniProt Q86WV6); assay: type 1 interferon promoter luciferase reporter in STING-lacking cell lines transduced with subtype 1 of human STING; type: cell-based; settings: c-di-AMP transfected into cells using lipofectamine 2000, 16 hours
T1 construct: expressed in transfected cells
Source text: (§1) The cell lines for stably expressing each subtype of STING were constructed by transducing subtypes 1 and 3 of mouse STING and subtypes 1 and M of human STING into different cell lines lack of STING with lentivirus. Meanwhile, these cell lines stably expressed reporter luciferase mediated by the promoter of type 1 interferon. The content of type 1 interferon within the cells or supernatants could be directly detected after adding these cell lines to the medium or the medium with 30 M extracellular cyclic dinucleotides c-di-AMP or transfecting c-di-AMP into cells by using lipofectamine 2000 for 16 hours, or cells were lysed and mixed with the substrate of the luciferase. The fluorescence intensities were read out. The ratio of the fluorescence intensities from the same cells with or without c-di-AMP was used to reflect increase of the fluorescence intensities obtained after adding c-di-AMP.

[2] = molecular target: T2, subtype M of human STING (Homo sapiens, UniProt Q86WV6); assay: type 1 interferon promoter luciferase reporter in STING-lacking cell lines transduced with subtype M of human STING; type: cell-based
T2 construct: expressed in transfected cells
Source text: as §1

## Nc1ncnc2c1ncn2[C@@H]1O[C@@H]2COP(=O)(O)O[C@H]3[C@@H](O)[C@H](n4cnc5c(N)ncnc54)O[C@@H]3COP(=O)(O)O[C@H]2[C@H]1O [c-di-AMP]
[1]
  sensing of intracellular c-di-AMP (ratio of fluorescence intensities with or without c-di-AMP): could sense intracellular c-di-AMP
[2]; 30 M extracellular c-di-AMP in medium, 16 hours
  sensing of extracellular cyclic dinucleotide (ratio of fluorescence intensities with or without c-di-AMP): sense extracellular cyclic dinucleotides
[2]; c-di-AMP transfected into cells using lipofectamine 2000, 16 hours
  sensing of intracellular c-di-AMP (ratio of fluorescence intensities with or without c-di-AMP): could sense intracellular c-di-AMP
